# Cyclic peptide permeability, from CycPeptMPDB

Source: CycPeptMPDB (Li et al. 2023), which took these values from Townsend et al. 2020, doi:10.26434/chemrxiv.13335941.v1.

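Lipid, pH, incubation time, direction and concentration are not recorded in the data file. The list need not hold all peptides of the study. Entries at the database's floor value (log10 P of -10) are not listed.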

PAMPA measures passive passage through an artificial lipid membrane.
P is given in units of 10^-6 cm/s (from log10 values with two decimals); larger means faster passage.

For CC(C)C[C@@H]1C(=O)N(C)[C@@H](CC(C)C)C(=O)N2CCC[C@H]2C(=O)N(Cc2ccccc2)CC(=O)N[C@@H](Cc2ccccc2)C(=O)N2CCC[C@@H]2C(=O)N(C)[C@H](C)C(=O)N1C the data give PAMPA 2.7 × 10^-6 cm/s.
For CC(C)C[C@@H]1NC(=O)[C@@H]2CCCN2C(=O)CN(Cc2ccccc2)C(=O)[C@@H](CC(C)C)NC(=O)[C@@H](C)N(C)C(=O)[C@@H]2CCCN2C(=O)[C@H](Cc2ccccc2)NC1=O the data give PAMPA 0.36 × 10^-6 cm/s.
For CC(C)C[C@@H]1NC(=O)[C@@H](C)N(C)C(=O)[C@H](Cc2ccccc2)NC(=O)[C@@H](CC(C)C)NC(=O)[C@@H]2CCCN2C(=O)[C@@H](CC(C)C)NC1=O the data give PAMPA 0.76 × 10^-6 cm/s.
For CC(C)C[C@@H]1C(=O)N2CCC[C@H]2C(=O)N(Cc2ccccc2)CC(=O)N[C@@H](Cc2ccccc2)C(=O)N2CCC[C@@H]2C(=O)N(C)[C@@H](C)C(=O)N[C@H](CC(C)C)C(=O)N1C the data give PAMPA 2.1 × 10^-6 cm/s.
For CC(C)C[C@@H]1NC(=O)[C@H](C)N(C)C(=O)[C@H](Cc2ccccc2)NC(=O)[C@@H](CC(C)C)NC(=O)[C@@H]2CCCN2C(=O)[C@@H](CC(C)C)N(C)C1=O the data give PAMPA 15 × 10^-6 cm/s.
For CC(C)C[C@@H]1NC(=O)[C@H](CC(C)C)N(C)C(=O)C[C@H](Cc2ccccc2)NC(=O)[C@@H]2CCCN2C(=O)[C@H](Cc2ccccc2)NC(=O)[C@@H](CC(C)C)N(C)C(=O)[C@@H]2CCCN2C1=O the data give PAMPA 2 × 10^-6 cm/s.
For CC(C)C[C@@H]1NC(=O)[C@H](C)N(C)C(=O)[C@@H]2CCCN2C(=O)[C@H](Cc2ccccc2)NC(=O)CN(Cc2ccccc2)C(=O)[C@@H]2CCCN2C(=O)[C@H](CC(C)C)NC1=O the data give PAMPA 0.68 × 10^-6 cm/s.
For CCCN1CC(=O)N[C@H](CC(C)C)C(=O)N(Cc2ccccc2)CC(=O)N2CCC[C@@H]2C(=O)N(C)[C@H](CC(C)C)C(=O)N[C@@H](Cc2ccccc2)C(=O)N2CCC[C@H]2C1=O the data give PAMPA 1.8 × 10^-6 cm/s.
For CC(C)C[C@@H]1NC(=O)C[C@H](Cc2ccccc2)NC(=O)[C@@H]2CCCN2C(=O)[C@H](Cc2ccccc2)NC(=O)[C@@H](CC(C)C)N(C)C(=O)[C@@H]2CCCN2C(=O)[C@@H](CC(C)C)NC1=O the data give PAMPA 3 × 10^-6 cm/s.
For CC(C)C[C@@H]1C(=O)N[C@@H](Cc2ccccc2)C(=O)N2CCC[C@H]2C(=O)N(C)[C@@H](C)C(=O)N(Cc2ccccc2)CC(=O)N[C@@H](Cc2ccccc2)CC(=O)N2CCC[C@@H]2C(=O)N1C the data give PAMPA 1.7 × 10^-6 cm/s.
For CC(C)C[C@@H]1C(=O)N[C@H](CC(C)C)C(=O)N2CCC[C@@H]2C(=O)N(Cc2ccccc2)CC(=O)N[C@@H](Cc2ccccc2)C(=O)N2CCC[C@@H]2C(=O)N(C)[C@H](C)C(=O)N1C the data give PAMPA 2.3 × 10^-6 cm/s.
For CC(C)C[C@@H]1NC(=O)[C@@H](CC(C)C)N(C)C(=O)[C@@H](C)N(C)C(=O)[C@H](Cc2ccccc2)NC(=O)CN(Cc2ccccc2)C(=O)[C@H]2CCCN2C1=O the data give PAMPA 2.8 × 10^-6 cm/s.

Extract of 2 entries:

{"smiles": "CC(C)C[C@@H]1C(=O)N(C)[C@@H](CC(C)C)C(=O)N2CCC[C@H]2C(=O)N(Cc2ccccc2)CC(=O)N[C@@H](Cc2ccccc2)C(=O)N2CCC[C@@H]2C(=O)N(C)[C@H](C)C(=O)N1C", "PAMPA (10^-6 cm/s)": "2.7"}
{"smiles": "CC(C)C[C@@H]1NC(=O)[C@H](CC(C)C)N(C)C(=O)C[C@H](Cc2ccccc2)NC(=O)[C@@H]2CCCN2C(=O)[C@H](Cc2ccccc2)NC(=O)[C@@H](CC(C)C)N(C)C(=O)[C@@H]2CCCN2C1=O", "PAMPA (10^-6 cm/s)": "2"}